Data: US9868746B2, “Substituted 5-aminothieno[2,3-C]pyridazine-6-carboxamide analogs as positive allosteric modulators of the muscarinic acetylcholine receptor M4” (Vanderbilt University, priority 2012, dated 2018)

Sequences of proteins named here, by UniProt entry; tags and fusion partners are left off.
UniProt P08173, whole entry, looked up: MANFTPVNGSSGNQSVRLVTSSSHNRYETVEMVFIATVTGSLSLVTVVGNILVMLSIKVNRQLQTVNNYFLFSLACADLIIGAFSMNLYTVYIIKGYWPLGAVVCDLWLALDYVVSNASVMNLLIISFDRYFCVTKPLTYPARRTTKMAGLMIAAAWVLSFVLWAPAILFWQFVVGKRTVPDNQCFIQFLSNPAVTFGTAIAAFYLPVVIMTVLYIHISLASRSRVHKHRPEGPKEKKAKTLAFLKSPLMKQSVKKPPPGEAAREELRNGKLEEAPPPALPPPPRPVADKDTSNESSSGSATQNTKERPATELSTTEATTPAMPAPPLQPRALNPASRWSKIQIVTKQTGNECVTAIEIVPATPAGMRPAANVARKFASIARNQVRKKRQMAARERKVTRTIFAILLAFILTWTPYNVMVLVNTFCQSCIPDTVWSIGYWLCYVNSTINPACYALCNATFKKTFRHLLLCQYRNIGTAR

Biological target: mAChR M4 (Homo sapiens, UniProt P08173)
Test: mAChR M4 cell-based functional assay (calcium mobilization, potentiation of EC20 acetylcholine response)

SMILES: Cc1nnc2sc(C(=O)NC3CN(C(=O)Oc4cccnc4)C3)c(N)c2c1C
- Emax (%)* (% ACh maximum at 30 μM): 66%
- EC50 (mAChR M4 cell-based functional assay, >10,000 estimated for low potency compounds without plateau): 38 nM
